Chains of the proteins cited; added tags and fusions are not shown. Residues count along the entry.
UniProt P03372, 281-549 G400V: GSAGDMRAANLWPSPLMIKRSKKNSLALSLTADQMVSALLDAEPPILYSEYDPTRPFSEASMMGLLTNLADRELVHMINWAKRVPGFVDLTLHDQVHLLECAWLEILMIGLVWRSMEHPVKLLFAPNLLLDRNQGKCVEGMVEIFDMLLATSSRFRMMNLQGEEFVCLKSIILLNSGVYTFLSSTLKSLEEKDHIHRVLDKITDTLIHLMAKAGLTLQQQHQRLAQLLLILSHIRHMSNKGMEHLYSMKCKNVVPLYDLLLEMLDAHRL

In patent US8178654B2, “Estrogen receptor intramolecular folding systems, estrogen receptor intramolecular folding sensors, methods of use thereof, methods of detecting ER ligands, and methods of detecting ER agonists and antagonists” (Stanford University, priority 2006, dated 2012):

Target: hER281-549 (human estrogen receptor alpha ligand binding domain amino acids 281-549) (Homo sapiens, UniProt P03372, G400V)
Test: Ligand-induced intramolecular folding split RLUC complementation, N-RLUC-hER281-549-C-RLUC in transfected cells
Conditions: 1 μM ligand, 18 hours

C[C@]12CC[C@@H]3c4ccc(O)cc4C[C@@H](CCCCCCCCC[S+]([O-])CCCC(F)(F)C(F)(F)F)[C@H]3[C@@H]1CC[C@@H]2O (stereo partly shown) [ICI182,780]
ligand-induced RLUC complementation signal (in words): not similar to either antagonists or agonists
